Tested on: C57BL/6 mice
Assay: Locomotor activity in open field, alone and against U50,488
Format: in vivo
Settings: 1 hour, FIG. 2

With `CN(C(=O)Cc1ccc(Cl)c(Cl)c1)[C@@H]1CCCC[C@H]1N1CCCC1` the “suppression of locomotor (ambulatory) activity compared to vehicle” value was “does”.
